From US20070259417A1

Tests used:
trypsin [1] = target: trypsin (UniProt P00760); test: pfu acid eluted from trypsin beads
[2] = target: agarose-immobilized anhydro-trypsin (UniProt P00760); test: titer after 2 h with 10 ul immobilized anhydro-trypsin
[3] = target: agarose-immobilized anhydro-trypsin (UniProt P00760); test: titer after 1 h with 10 ul immobilized anhydro-trypsin
[4] = target: agarose-immobilized anhydro-trypsin (UniProt P00760); test: dot blot of phage eluted at pH 2.2 from 5 ul immobilized anhydro-trypsin
[5] = target: agarose-immobilized anhydro-trypsin (UniProt P00760); test: titer after 2 h with 5 ul immobilized anhydro-trypsin
[6] = target: agarose-immobilized anhydro-trypsin (UniProt P00760); test: dot blot of phage eluted at pH 2.2 from 2 ul immobilized anhydro-trypsin
[7] = target: agarose-immobilized anhydro-trypsin (UniProt P00760); test: dot blot of phage eluted at pH 2.2 from 10 ul immobilized anhydro-trypsin
[8] = target: human neutrophil elastase (human) (UniProt P08246); test: immobilized HNE, pH 6.0 wash
[9] = target: human neutrophil elastase (human) (UniProt P08246); test: immobilized HNE, pH 7.0 wash
[10] = target: human neutrophil elastase (human) (UniProt P08246); test: immobilized HNE, pH 4.5 wash
[11] = target: human neutrophil elastase (human) (UniProt P08246); test: immobilized HNE, pH 5.0 wash
[12] = target: human neutrophil elastase (human) (UniProt P08246); test: immobilized HNE, sum of pH washes
[13] = target: human neutrophil elastase (human) (UniProt P08246); test: immobilized HNE, pH 3.0 wash
[14] = target: human neutrophil elastase (human) (UniProt P08246); test: immobilized HNE, pH 4.0 wash
[15] = target: human neutrophil elastase (human) (UniProt P08246); test: immobilized HNE, pH 3.5 wash
[16] = target: human neutrophil elastase (human) (UniProt P08246); test: mixture of two phage on immobilized HNE, pH 7.0 wash
[17] = target: human neutrophil elastase (human) (UniProt P08246); test: mixture of two phage on immobilized HNE, pH 5.0 wash
[18] = target: human neutrophil elastase (human) (UniProt P08246); test: immobilized HNE, pH 5.0 wash; remark: listed apart in the source
[19] = target: human neutrophil elastase (human) (UniProt P08246); test: immobilized HNE, pH 4.25 wash
[20] = target: human neutrophil elastase (human) (UniProt P08246); test: immobilized HNE, pH 5.5 wash
[21] = target: human neutrophil elastase (human) (UniProt P08246); test: immobilized HNE, pH 4.75 wash
[22] = target: human neutrophil elastase (human) (UniProt P08246); test: immobilized HNE, pH 6.0 wash; remark: listed apart in the source
[23] = target: human neutrophil elastase (human) (UniProt P08246); test: immobilized HNE, sum of pH washes; remark: listed apart in the source
[24] = target: human neutrophil elastase (human) (UniProt P08246); test: immobilized HNE, pH 4.5 wash; remark: listed apart in the source
[25] = target: human neutrophil elastase (human) (UniProt P08246); test: fractionation of a phage mixture on immobilized HNE
[26] = target: human neutrophil elastase (human) (UniProt P08246); test: immobilized HNE, pH 3.5 wash; remark: listed apart in the source
[27] = target: human neutrophil elastase (human) (UniProt P08246); test: immobilized HNE, pH 7.0 wash; remark: listed apart in the source
[28] = target: human neutrophil elastase (human) (UniProt P08246); test: immobilized HNE, pH 4.0 wash; remark: listed apart in the source
[29] = target: human neutrophil elastase (human) (UniProt P08246); test: pfu acid eluted from HNE beads
[30] = target: human neutrophil elastase (human) (UniProt P08246); test: mixture of two phage on immobilized HNE, pH 6.0 wash
[31] = target: human neutrophil elastase (human) (UniProt P08246); test: mixture of two phage on immobilized HNE, pH 4.0 wash
trypsin [32] = target: trypsin (UniProt P00760); test: pH 2.2 eluate from immobilized trypsin
[33] = target: human neutrophil elastase (human) (UniProt P08246); test: pH 2.2 eluate from immobilized HNE
[34] = target: human neutrophil elastase (human) (UniProt P08246); test: pH 2.2 eluates from immobilized proteases
[35] = target: human neutrophil elastase (human) (UniProt P08246); test: immobilized HNE, pH 2.2 wash
[36] = target: agarose-immobilized streptavidin (UniProt P22629); test: dot blot of phage eluted at pH 2.2 from 5 ul immobilized streptavidin

Row | Substance | binding relative to M13MP18 (trypsin [1]) | eluted phage, percent of input (trypsin [1]) | percent of input phage [8] | percent of input phage [9] | percent of input phage [10] | percent of input phage [11] | total percentage of input phage recovered [12] | percent of input phage [13] | percent of input phage [14] | percent of input phage [15] | percent of input phage [18] | percent of input phage [19] | percent of input phage [20] | percent of input phage [21] | percent of input phage [22] | total percentage of input phage recovered [23] | percent of input phage [24] | percent of input phage [26] | percent of input phage [27] | percent of input phage [28] | further results
1 | BPTI-III MK phage (from UniProt P00974 36-93) | 2000 fold | 1% |  |  |  |  |  |  |  |  |  |  |  |  |  |  |  |  |  |  | percent residual titer [2]: 30%; percent residual titer [3]: 40%; percent of total phage recovered in elution buffer [4]: 20%; percent residual titer [5]: 40%; percent of total phage recovered in elution buffer [6]: 5%; percent of total phage recovered in elution buffer [7]: 50%
2 | BPTI(K15V,R17L)-III MA phage (designed binder) |  |  | 0.138% | 0.081% | 0.355% | 0.241% | 1.73% | 0.068% | 0.515% | 0.106% |  |  |  |  |  |  |  |  |  |  | 
3 | BPTI(K15L,MGNG)-III MA phage (designed binder) | 2 fold | 0.001% | 0.079% | 0.046% | 0.211% | 0.139% | 0.57% |  | 0.069% | 0.026% | 0.316% | 0.18% | 0.264% | 0.46% | 0.227% | 1.8% | 0.13% | 0.014% | 0.163% | 0.048% | percent of input phage [16]: 0.313%; percent of input phage [17]: 0.304%; enrichment over BPTI-III MK phage in the pH 4.0 fraction [25]: 984 fold; binding relative to M13MP18 [29]: 14000 fold; eluted phage, percent of input [29]: 4.1%; percent of input phage [30]: 0.162%; percent of input phage [31]: 1.67%
4 | BPTI(K15L)-III MA phage (designed binder) |  |  | 0.086% | 0.032% |  | 0.4% | 1.56% | 0.21% | 0.82% |  | 0.152% | 0.142% | 0.146% | 0.276% | 0.1% | 1% | 0.085% | 0.004% | 0.082% | 0.014% | percent of input phage (trypsin [32]): 0.005%; percent of input phage [33]: 0.1%; ratio of input phage bound to HNE beads over trypsin beads [34]: 36 fold; percent of input phage [35]: 0.011%
5 | BPTI-III MK phage (from UniProt P00974 36-93) (other; other documents disagree on this pair) |  |  |  | 0.002% |  |  | 0.008% |  | 0.001% |  |  |  |  |  |  |  |  |  |  |  | total pfu in fraction [9]: 50000 pfu; percent of total phage recovered in elution buffer [36]: < 1%; percent of input phage [33]: 0.005%; total pfu in fraction [14]: 30000 pfu

Read-outs that look alike come from different tables or passages of the source.
